Drawing on ChEMBL document CHEMBL5321279 (J Med Chem, 2023), this text covers Cmax for one compound.

For data set [1] the following is noted: rat, in vivo, iv, 1 mg/kg, 24 h.
The conditions of data set [2]: dog, in vivo, iv, 1 mg/kg, 24 h.
For data set [3] the following is noted: chlorocebus sabaeus, in vivo, iv, 20 mg/kg, 24 h.
For data set [4] the following is noted: rat, in vivo, po, 5 mg/kg, 24 h.
For data set [5] the following is noted: dog, in vivo, po, 5 mg/kg, 24 h.
For data set [6] the following is noted: cynomolgus monkey, in vivo, po, 5 mg/kg, 24 h.
The conditions of data set [7]: chlorocebus sabaeus, in vivo, po, 5 mg/kg, 24 h.
For data set [8] the following is noted: monkey, in vivo, iv, 7.5 mg/kg.

Consider `N#C[C@@]1(c2ccc3c(N)ncnn23)O[C@H](CO)[C@@H](O)[C@H]1O` [GS-441524], for which the Cmax in data set [1] was found to be 1.78 µM; in data set [2], 13.5 µM; in data set [3], 87.3 µM; in data set [4], 1.11 µM; in data set [5], 27.3 µM; in data set [6], 0.54 µM. In addition, the results for the Cmax in data set [7] and in data set [8] were 0.36 µM and approximately 33 µM, respectively.
